In test [1] the target is T1, NEDD8-activating enzyme (NAE) (Homo sapiens, UniProt Q8TBC4).
T1 sequence (Q8TBC4 1-463): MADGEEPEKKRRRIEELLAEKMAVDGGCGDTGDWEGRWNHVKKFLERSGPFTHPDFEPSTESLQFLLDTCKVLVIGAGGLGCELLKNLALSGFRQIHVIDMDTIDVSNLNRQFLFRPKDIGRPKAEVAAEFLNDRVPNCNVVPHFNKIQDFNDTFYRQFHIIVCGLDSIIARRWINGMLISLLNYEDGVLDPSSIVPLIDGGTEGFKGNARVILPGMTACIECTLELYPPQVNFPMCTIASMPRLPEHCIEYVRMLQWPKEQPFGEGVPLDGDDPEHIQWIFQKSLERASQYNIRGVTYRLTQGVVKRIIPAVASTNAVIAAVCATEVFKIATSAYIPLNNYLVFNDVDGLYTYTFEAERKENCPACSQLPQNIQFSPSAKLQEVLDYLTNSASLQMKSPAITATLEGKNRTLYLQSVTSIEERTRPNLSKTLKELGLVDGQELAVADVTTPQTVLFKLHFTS
T1 sequence (Q13564 1-534 partner): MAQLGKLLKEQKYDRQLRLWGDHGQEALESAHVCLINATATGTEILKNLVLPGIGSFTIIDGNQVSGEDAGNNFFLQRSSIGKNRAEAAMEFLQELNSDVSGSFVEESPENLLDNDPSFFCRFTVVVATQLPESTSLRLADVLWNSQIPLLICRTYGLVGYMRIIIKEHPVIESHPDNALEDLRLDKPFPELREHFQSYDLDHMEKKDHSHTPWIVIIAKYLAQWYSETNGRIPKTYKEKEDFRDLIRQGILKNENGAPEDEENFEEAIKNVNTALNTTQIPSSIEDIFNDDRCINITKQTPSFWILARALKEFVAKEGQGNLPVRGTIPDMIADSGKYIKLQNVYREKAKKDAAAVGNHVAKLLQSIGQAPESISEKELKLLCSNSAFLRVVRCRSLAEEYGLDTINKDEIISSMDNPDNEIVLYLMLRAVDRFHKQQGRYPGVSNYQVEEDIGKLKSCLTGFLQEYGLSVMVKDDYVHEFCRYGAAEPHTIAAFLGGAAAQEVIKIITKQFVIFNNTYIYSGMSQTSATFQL
The test can be described thus: E1-E2 transthiolation HTRF assay, NAE. In kind it is biochemical. The source says: (§1) 592 E1-E2 Transthiolation Assays
(§2) 593 An Homogeneous Time-Resolved Fluorescence (HTRF) enzyme assay was employed to evaluate
(§3) 594 compound activity against ATG7 as previously described (11). In this assay, a Flag-tagged ATG8 homolog
(§4) 595 (GABA type A receptor-associated protein; GABARAP) is activated by ATG7 and then transthiolated to a
(§5) 596 GST-tagged E2 (ATG3). The product of the enzyme reaction, Flag-GABARAP-ATG3-GST, is quantified
(§6) 597 by measuring FRET between Europium-Cryptate labelled monoclonal anti-Flag M2 (CisBio International,
(§7) 598 Cat# 61FG2KLB) and PHYCOLINK goat anti-GST allophycocyanin (Prozyme, PJ252p1). The activation
(§8) 599 and transthiolation of ubiquitin by Ubiquitin Activating Enzyme, activation and transthiolation of NEDD8
(§9) 600 by NEDD8 Activating Enzyme. […]
(§10) 606 Compounds were incubated with mature stage V gametocytes ([…], kind gift from Professor Chris Janse
(§11) 607 at Leiden University Medical Center (LUMC), the Netherlands) for 48 hours in 384 well plates before
(§12) 608 gamete formation was triggered by a drop in temperature and addition of xanthurenic acid. […]
(§13) 611 Multiple data sets using different gametocyte cultures were collected on each of two separate days.
(§14) 613 Activity against exoerythrocytic stages
(§15) 614 Primary human hepatocytes (H1500.H15B+ Lot No. HC10-10 Cryopreserved human hepatocytes) […]
On the technique in general: TR-FRET usually uses a lanthanide donor and a delayed reading to cut background.

The target in test [2] is T2, ubiquitin activating enzyme (UAE) (Homo sapiens, UniProt P22314).
T2 sequence (P22314 1-1058): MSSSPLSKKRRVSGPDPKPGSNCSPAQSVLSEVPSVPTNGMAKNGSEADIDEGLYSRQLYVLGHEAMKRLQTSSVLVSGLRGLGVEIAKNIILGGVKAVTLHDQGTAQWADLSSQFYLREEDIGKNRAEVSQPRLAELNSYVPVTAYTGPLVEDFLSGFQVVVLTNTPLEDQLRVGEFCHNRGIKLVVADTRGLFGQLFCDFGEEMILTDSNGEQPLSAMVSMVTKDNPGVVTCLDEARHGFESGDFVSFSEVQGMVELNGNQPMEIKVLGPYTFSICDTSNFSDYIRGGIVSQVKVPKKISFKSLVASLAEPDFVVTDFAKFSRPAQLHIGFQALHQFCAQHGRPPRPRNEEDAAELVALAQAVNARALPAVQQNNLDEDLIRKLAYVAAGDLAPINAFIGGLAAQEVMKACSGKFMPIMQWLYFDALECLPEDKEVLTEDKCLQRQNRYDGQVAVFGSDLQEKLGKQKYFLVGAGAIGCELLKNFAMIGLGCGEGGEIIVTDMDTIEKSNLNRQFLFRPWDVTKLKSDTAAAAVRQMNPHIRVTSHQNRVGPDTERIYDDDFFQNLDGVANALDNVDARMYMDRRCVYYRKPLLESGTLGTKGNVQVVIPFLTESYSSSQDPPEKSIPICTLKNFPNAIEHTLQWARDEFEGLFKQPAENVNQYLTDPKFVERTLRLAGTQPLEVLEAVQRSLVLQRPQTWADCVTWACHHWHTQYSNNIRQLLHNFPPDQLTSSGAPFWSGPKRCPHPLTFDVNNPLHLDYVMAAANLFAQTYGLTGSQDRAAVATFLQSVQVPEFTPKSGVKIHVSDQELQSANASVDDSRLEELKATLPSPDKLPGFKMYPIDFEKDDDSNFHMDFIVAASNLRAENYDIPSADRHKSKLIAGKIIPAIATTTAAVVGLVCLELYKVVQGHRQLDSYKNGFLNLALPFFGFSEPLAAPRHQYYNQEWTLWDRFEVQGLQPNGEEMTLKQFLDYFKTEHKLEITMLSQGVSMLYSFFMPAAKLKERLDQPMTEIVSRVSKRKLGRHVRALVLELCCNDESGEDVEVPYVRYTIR
Briefly: E1-E2 transthiolation HTRF assay, UAE. In kind it is biochemical.
Text: as §1, §2, §3, §4, §5, §6, §7, §8, §9, §10, §11, §12, §13, §14, §15

Test [3] has as its target T3, SUMO-activating enzyme (SAE) (Homo sapiens, UniProt Q9UBT2).
T3 sequence (Q9UBT2 1-640): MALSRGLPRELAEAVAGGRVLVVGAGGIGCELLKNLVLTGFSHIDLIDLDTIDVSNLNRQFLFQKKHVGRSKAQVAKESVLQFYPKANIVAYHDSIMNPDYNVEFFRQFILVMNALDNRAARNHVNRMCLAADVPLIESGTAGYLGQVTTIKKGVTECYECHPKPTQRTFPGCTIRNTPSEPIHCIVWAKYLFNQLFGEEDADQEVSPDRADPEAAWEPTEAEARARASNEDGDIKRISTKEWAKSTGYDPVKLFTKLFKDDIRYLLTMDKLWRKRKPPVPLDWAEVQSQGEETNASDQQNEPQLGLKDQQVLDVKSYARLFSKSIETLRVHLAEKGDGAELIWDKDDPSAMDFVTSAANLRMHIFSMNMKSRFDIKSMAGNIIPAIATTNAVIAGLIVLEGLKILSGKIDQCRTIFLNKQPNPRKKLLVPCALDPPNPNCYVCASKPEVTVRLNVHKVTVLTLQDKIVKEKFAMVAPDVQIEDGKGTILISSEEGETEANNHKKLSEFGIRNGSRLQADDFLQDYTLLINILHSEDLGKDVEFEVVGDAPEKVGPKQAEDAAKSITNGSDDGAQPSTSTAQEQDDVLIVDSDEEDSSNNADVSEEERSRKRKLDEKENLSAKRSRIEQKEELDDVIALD
T3 sequence (Q9UBE0 1-346 partner): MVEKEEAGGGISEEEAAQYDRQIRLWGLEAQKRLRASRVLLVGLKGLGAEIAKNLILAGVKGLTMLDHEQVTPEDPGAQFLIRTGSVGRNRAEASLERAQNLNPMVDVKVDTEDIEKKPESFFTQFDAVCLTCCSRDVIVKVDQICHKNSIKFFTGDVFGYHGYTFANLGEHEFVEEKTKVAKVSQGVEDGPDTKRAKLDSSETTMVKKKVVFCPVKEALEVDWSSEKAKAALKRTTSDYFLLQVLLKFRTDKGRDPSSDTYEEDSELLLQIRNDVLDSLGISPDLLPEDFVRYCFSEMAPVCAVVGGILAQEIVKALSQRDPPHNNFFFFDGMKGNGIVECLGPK
Briefly: biochemical.
Text: as §1, §2, §3, §4, §5, §6, §7, §8, §9, §10, §11, §12, §13, §14, §15

A further test deals with T4, human Atg7 (Homo sapiens, UniProt O95352).
T4 sequence (O95352 1-703): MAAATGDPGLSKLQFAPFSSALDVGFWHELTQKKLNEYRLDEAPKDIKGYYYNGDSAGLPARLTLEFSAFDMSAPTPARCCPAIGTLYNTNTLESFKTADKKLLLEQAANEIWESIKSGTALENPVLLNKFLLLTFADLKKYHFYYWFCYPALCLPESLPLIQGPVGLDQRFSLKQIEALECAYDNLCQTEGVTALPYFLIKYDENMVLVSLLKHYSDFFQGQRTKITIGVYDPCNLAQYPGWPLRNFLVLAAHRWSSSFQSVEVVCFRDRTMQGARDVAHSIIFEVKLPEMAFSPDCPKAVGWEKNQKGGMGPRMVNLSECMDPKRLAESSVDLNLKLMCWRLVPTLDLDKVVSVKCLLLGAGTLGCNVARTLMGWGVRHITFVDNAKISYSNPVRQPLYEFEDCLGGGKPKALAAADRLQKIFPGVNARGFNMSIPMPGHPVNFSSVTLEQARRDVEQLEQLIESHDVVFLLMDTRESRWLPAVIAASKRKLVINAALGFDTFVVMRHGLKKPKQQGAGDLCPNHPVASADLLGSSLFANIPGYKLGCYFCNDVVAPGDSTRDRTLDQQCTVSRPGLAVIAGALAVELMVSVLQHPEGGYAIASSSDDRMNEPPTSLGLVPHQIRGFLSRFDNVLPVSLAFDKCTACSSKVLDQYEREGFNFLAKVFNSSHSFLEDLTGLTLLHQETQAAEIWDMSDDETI
Briefly: E1-E2 transthiolation HTRF assay, ATG7 (RH-GABARAP). It is filed as biochemical.
Text: as §1, §2, §3, §4, §5, §6
598 Cat# 61FG2KLB) and PHYCOLINK goat anti-GST allophycocyanin (Prozyme, PJ252p1). […]
as §10, §11, §12, §13, §14
614 Primary human hepatocytes (H1500.H15B+ Lot No. HC10-10 Cryopreserved human hepatocytes)
615 were cultured for 2 days and then overlaid with P. falciparum NF54 sporozoites and compounds.
616 Supernatant was refreshed daily with fresh compounds.

For orientation: IC50 means the concentration needed to halve the response being measured. Read a low IC50 as higher potency. `Nc1ncnc2c1ncn2[C@@H]1O[C@H](COS(N)(=O)=O)[C@@H](O)[C@H]1O` [AMS, adenosine 5′-sulfamate, reference compound]: the concentration for half-maximal inhibition (IC50) in test [1] was found to be 0.64 ± 0.11 nM; in test [2], 62 ± 32 nM; in test [3] it was 6.3 ± 1.5 nM; at human Atg7, 410 ± 20 nM.

For the origin of these results see paper PMC7613620, “Reaction hijacking of tyrosine tRNA synthetase as a whole-of-life-cycle antimalarial strategy” (Science (New York, N.Y.), 2022).
